The target in data set [1] is human serum albumin (HSA) (Homo sapiens, UniProt P02768). The experiment in a line: in vitro. The following applies: pH 7.4. As to the method: In this study, we used the streptavidin conjugated biosensors (Pall Fort6Bio LLC, CA). We preincubated the biosensors with biotinylated HSA (Abeam Inc., Cambridge, Mass.) for 10 minutes. After removing the unbound biotinylated HSA, the biosensors were washed for 1 minute. After blocking the spare biosensor, we added EZ-Link™ Sulfo-NHS-Biotin (Thermo Fisher Scientific, Rockford, Ill.) to each well and then removed it and washed the wells.
Association of a given dilution of a compound with the albumin-derivatized biosensor was measured for 600 seconds and then in turn, dissociation of the compound from the albumin measured for another 600 seconds. Data was analyzed using the OCTET Data Analysis software 7.0.

Amino acid sequences for entries named in this document (tags omitted). Residues count along the entry.
UniProt P02768, 25-609: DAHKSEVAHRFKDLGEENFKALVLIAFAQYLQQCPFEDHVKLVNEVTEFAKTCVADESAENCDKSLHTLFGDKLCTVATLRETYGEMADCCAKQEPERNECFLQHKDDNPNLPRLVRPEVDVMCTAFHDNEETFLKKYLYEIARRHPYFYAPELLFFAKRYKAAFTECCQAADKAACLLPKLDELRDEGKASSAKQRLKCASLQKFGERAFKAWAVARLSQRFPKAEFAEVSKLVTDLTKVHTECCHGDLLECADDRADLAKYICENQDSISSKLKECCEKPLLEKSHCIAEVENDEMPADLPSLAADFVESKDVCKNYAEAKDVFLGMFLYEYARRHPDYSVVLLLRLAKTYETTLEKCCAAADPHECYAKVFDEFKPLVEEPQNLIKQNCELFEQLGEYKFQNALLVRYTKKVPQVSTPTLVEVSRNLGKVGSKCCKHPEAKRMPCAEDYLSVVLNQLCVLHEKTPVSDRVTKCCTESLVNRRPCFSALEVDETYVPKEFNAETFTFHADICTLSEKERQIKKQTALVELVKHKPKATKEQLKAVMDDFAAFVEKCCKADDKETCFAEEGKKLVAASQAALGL
UniProt P02768, 404-601: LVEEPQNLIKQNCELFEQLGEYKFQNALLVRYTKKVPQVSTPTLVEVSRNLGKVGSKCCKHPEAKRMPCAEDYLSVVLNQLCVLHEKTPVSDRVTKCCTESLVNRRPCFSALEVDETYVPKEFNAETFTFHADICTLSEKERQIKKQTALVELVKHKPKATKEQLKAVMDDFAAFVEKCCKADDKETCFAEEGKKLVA

Data set [2] concerns the target recombinant HSA subunits (three separate domains of albumin) (Homo sapiens, UniProt P02768). The following applies: LC-MS.

The structures appear in SMILES notation. Counter-ions that a name gives are not always drawn.

What is called koff is the first-order rate constant of dissociation. The kon is the second-order rate constant of association. Low values mean slow association, high ones fast association.

On to `Cc1cc(-c2ccc(N=Nc3ccc4c(S(=O)(=O)O)cc(S(=O)(=O)O)c(N)c4c3O)c(C)c2)ccc1N=Nc1ccc2c(S(=O)(=O)O)cc(S(=O)(=O)O)c(N)c2c1O` [EB, tetrasodium salt of 6,6′-{(3,3′-dimethyl[1,1′-biphenyl]-4,4′-diyl)bis[diazene-2,1-diyl]}bis(4-amino-5-hydroxynaphthalene-1,3-disulfonate)], for which, in data set [1], the off-rate (koff) was 0.178 s⁻¹ and the kon stood at 45100 M⁻¹ s⁻¹. In data set [2], the “HSA subunit observed to complex with the compound” value is “Only domain III subunit”.

(Values after patent US20220017495A1, “CONJUGATES OF BIVALENT EVANS BLUE DYE DERIVATIVES AND METHODS OF USE” (THE UNITED STATES OF AMERICA, AS REPRESENTED BY THE …, priority 2019, published 2022).)
